The nature of data set [1]: Drug excretion in BALB/c mouse urine at 2.5 mg/kg, ip administered as single dose measured after 5 mins by LC/MS analysis. The class given is ADME, organism-based. More on the design: dose 2.5 mg/kg, route intraperitoneal. Particulars: in vivo.
A short description of data set [2]: Solubility of compound in water at 25 degC. Format: physicochemical. The note with it: buffer.
The nature of data set [3]: Lipophilicity, log P of compound at 25 degC. The class given is physicochemical. Particulars: octanol/water.

≈ marks a conversion by molar mass, not a printed value.

Drawing on ChEMBL document CHEMBL3297658, “Potent fluorinated agelastatin analogues for chronic lymphocytic leukemia: design, synthesis, and pharmacokinetic studies” (J Med Chem, 2014), this text covers Drug excretion, solubility and logP for one molecule.

In turn, `CN1C(=O)N[C@H]2[C@@H]3NC(=O)c4ccc(Br)n4[C@@H]3C[C@]21O` (stereo in doubt; 1a) [AGELASTATIN A] yielded a Drug excretion in data set [1] of 217 µM. The same molecule returned a solubility in data set [2] of 640 µg/mL (≈ 1880 µM). The molecule also gave a logP in data set [3] of 0.18.
